The record followed here is patent US20060189530A1 (Bayer Corporation, priority 1996, published 2006).

By UniProt entry, the sequences of proteins in these tests, tags left out. Where a name states a change or a piece, a line headed by the entry shows the natural chain unless it says otherwise. Residues count along the entry.
UniProt Q63447: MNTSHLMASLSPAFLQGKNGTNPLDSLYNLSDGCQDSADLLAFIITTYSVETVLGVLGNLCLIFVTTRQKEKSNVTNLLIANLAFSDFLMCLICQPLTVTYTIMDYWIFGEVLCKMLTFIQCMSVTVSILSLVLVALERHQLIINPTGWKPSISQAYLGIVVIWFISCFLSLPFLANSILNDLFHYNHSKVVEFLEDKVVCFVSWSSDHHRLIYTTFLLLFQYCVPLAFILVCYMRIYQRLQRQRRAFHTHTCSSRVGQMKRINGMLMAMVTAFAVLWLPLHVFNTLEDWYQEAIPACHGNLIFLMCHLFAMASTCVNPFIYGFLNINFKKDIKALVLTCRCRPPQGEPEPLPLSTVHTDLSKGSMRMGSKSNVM
UniProt P21555, whole entry: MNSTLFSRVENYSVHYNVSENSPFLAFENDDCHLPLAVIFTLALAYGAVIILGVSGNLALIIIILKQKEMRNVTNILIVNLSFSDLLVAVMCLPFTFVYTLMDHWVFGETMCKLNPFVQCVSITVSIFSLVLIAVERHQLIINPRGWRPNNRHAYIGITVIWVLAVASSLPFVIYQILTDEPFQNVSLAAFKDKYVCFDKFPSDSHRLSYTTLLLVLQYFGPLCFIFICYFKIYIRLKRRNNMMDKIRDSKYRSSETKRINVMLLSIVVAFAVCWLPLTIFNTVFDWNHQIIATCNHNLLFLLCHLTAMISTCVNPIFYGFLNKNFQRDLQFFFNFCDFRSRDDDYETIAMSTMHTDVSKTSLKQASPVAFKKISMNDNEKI
UniProt Q9ERC0, 1-381: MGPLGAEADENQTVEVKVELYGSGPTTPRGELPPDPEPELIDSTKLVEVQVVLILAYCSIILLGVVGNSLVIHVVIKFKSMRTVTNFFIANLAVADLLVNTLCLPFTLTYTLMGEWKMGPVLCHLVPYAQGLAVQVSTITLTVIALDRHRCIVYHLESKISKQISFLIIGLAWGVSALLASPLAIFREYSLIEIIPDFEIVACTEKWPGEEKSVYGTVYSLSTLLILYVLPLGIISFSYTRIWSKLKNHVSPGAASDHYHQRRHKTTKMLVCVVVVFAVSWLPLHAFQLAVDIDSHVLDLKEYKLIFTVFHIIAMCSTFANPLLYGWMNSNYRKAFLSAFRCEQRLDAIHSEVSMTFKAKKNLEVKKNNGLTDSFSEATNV

One assay concerns the target Rat Y4/PP1 (clone) (Rattus norvegicus, UniProt Q63447). The experiment in a line: rat [125I]PP binding assay for rat Y4/PP1 receptor. The following applies: read-out: IC50, Rat Y4/PP1 (clone); 50 pM rat [125I]PP.
The target of the next assay is Rat Y1 (clone) (Rattus norvegicus, UniProt P21555). The experiment in a line: [125I]PYY binding assay for rat Y1 receptor. The following applies: read-out: IC50, Rat Y1 (clone); 50 pM [125I]PYY.
Assay [1] deals with T1, rat NPY Y5 receptor (Y555 clone) (Rattus norvegicus, UniProt Q63634).
T1 construct: expressed in transfected cells; host or cells: COS-7 (transient), membranes
T1 sequence (Q63634 1-445): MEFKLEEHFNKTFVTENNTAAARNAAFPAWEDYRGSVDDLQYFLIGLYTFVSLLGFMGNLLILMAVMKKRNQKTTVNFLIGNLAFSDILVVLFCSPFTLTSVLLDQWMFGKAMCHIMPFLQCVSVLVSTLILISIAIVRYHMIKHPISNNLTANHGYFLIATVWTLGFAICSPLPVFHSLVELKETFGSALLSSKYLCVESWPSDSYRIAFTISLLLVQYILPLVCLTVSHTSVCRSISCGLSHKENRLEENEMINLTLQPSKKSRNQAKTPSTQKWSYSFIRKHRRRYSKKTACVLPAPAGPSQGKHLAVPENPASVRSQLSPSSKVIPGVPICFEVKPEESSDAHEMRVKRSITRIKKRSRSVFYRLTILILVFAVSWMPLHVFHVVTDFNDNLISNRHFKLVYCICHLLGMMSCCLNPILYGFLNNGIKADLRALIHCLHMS
The assay can be described thus: [125I]PYY competition binding, rat Y5 Y555 clone transiently expressed in COS-7 membranes. The settings on record: read-out: NPY Y5 binding affinity, RAT Y555 Clone (IC50 values per footnote), transient COS-7 membranes, ± SEM. As to the method:
(§1) The media was removed from each flask of transfected cells, and the cells were washed twice with 20 ml ice-cold phosphate buffered saline.
(§2) All other peptides were purchased from either Peninsula (Belmont, Calif.) or Bachem (Torrance, Calif.).

For the next assay, the target named is T2, Rat Y5 (Y861) (Rattus norvegicus, UniProt Q63634).
T2 construct: expressed in transfected cells
T2 sequence (Q63634 1-445): T1 sequence (Q63634 1-445)
The experiment in a line: [125I]PYY binding, rat Y5 (Y861), IC50 of Table 3. The following applies: read-out: IC50, Rat Y5 (Y861).
Text: as §2

In a further assay the target is Rat Y2 (clone) (Rattus norvegicus, UniProt Q9ERC0). The assay can be described thus: [125I]PYY binding assay for rat Y2 receptor. The following applies: read-out: IC50, Rat Y2 (clone); 25 pM [125I]PYY.
Assay [2] deals with T3, human NPY Y5 receptor (Homo sapiens, UniProt Q15761).
T3 construct: containing the full length open reading frame encoding the receptor; expressed in transfected cells
T3 sequence (Q15761 1-445): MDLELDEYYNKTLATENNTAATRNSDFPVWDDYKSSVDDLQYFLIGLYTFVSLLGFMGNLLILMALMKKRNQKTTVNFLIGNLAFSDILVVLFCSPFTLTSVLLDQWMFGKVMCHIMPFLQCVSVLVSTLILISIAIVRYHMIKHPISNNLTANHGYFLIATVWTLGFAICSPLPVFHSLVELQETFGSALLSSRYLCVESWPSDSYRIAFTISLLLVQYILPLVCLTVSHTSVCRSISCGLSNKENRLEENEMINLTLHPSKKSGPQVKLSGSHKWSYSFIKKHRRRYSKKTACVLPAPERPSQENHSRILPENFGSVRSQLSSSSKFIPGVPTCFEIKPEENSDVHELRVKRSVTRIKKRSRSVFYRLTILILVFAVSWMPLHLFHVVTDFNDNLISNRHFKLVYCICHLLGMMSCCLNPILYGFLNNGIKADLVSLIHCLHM
The assay can be described thus: [125I]PYY competition binding, human Y5 clone transiently expressed in COS-7 membranes. The settings on record: read-out: NPY Y5 binding affinity Ki, HUMAN Clone, transient COS-7 membranes, ± SEM. As to the method: as §1, §2

For assay [3], the target named is T4, rat NPY Y5 receptor (6B clone) (Rattus norvegicus, UniProt Q63634, L61P).
T4 construct: expressed in transfected cells; host or cells: COS-7 (transient), membranes
T4 sequence (Q63634 1-445 L61P): T1 sequence (Q63634 1-445) with L61P
The experiment in a line: [125I]PYY competition binding, rat Y5 6B clone transiently expressed in COS-7 membranes. The following applies: read-out: NPY Y5 binding affinity Ki, RAT 6B Clone, transient COS-7 membranes, ± SEM. On the procedure:
as §1, §2

In the next assay the target is T5, human Y5 receptor (Homo sapiens, UniProt Q15761).
T5 construct: containing the full length open reading frame encoding the receptor; expressed in transfected cells
T5 sequence (Q15761 1-445): T3 sequence (Q15761 1-445)
The experiment in a line: Forskolin-stimulated adenylate cyclase (cAMP), human Y5 stable cells 293.hY5.sb.8. Format: cell-based. The settings on record: read-out: EC50, 293.hY5.sb.8.

Assay [4] concerns the target T6, rat NPY Y5 receptor (Y861 clone) (Rattus norvegicus, UniProt Q63634).
T6 sequence (Q63634 1-445): T1 sequence (Q63634 1-445)
The assay can be described thus: [125I]PYY competition binding, stably expressed rat Y5 (293S.Y861.2). Set-up: expressed in transfected cells. The settings on record: read-out: Ki, 293S.Y861.2, Average ± SEM. On the procedure: as §1, §2

Assay [5] concerns the target T3, human NPY Y5 receptor. The assay can be described thus: [125I]PYY competition binding, stably expressed human Y5 (293.hY5.sb.8). The settings on record: read-out: Ki, 293.hY5.sb.8, Average ± SEM. On the procedure:
as §1, §2

Assay [6] addresses T6, rat NPY Y5 receptor (Y861 clone). The experiment in a line: [125I]PYY competition binding, rat Y5 Y861 clone transiently expressed in COS-7 membranes. More on the design: expressed in transfected cells; host or cells: COS-7 (transient), membranes. The settings on record: read-out: NPY Y5 binding affinity Ki, RAT Y861 Clone, transient COS-7 membranes, ± SEM. As to the method: as §1, §2

Substitutions are numbered along the chain they refer to. A value given as a limit tells only on which side of the number the result lay.

For the substance (2-36)NPY [r/h(2-36)NPY], the IC50 on Rat Y4/PP1 (clone) was above 1000 nM; at Rat Y1 (clone), 47 nM.

For the substance (3-36)NPY [p(3-36)NPY], the IC50 is 3.6 ± 0.4 nM in assay [1]; 2.2 nM at Rat Y5 (Y861); above 1000 nM on Rat Y4/PP1 (clone); 0.67 nM on Rat Y2 (clone); 45 nM on Rat Y1 (clone). Besides, the Ki at human NPY Y5 receptor [2] was 10.4 ± 2 nM.

Consider (3-36)NPY [r/h(3-36)NPY], for which the inhibition constant (Ki) worked out at 0.49 nM in assay [3]; 3.8 ± 0.48 nM on human NPY Y5 receptor [2]; 1.4 ± 0.4 nM in [4]; 3.5 ± 0.4 nM at human NPY Y5 receptor [5]; 2.1 nM in [6]. The concentration for a half-maximal effect (EC50) at human Y5 receptor turned out to be 6 nM.

For the substance (3-36)PYY [r(3-36)PYY], the inhibition constant Ki at human NPY Y5 receptor [2] is 10 ± 3.4 nM; at human NPY Y5 receptor [5], 4.5 ± 0.7 nM.

Take (10-36)NPY [r/h(10-36)NPY]: the IC50 was 35 nM in assay [1]; 34 nM at Rat Y5 (Y861); above 1000 nM on Rat Y4/PP1 (clone); 0.42 nM on Rat Y2 (clone); 148 nM on Rat Y1 (clone). In addition, the Ki was determined as 4.9 nM in [3]; 110 nM on human NPY Y5 receptor [2]; 15 ± 4.7 nM in assay [4]; 14 ± 2.7 nM at human NPY Y5 receptor [5]; 34 ± 2.8 nM in assay [6].

(18-36)NPY [p(18-36)NPY]: the Ki in assay [3] worked out at 194 ± 88 nM; in assay [4], 61 ± 13 nM. In addition, the IC50 at Rat Y4/PP1 (clone) is 159 nM.

As to (20-36)NPY [r/h(20-36)NPY], the Ki in [3] was 330 ± 31 nM; at human NPY Y5 receptor [2] it was above 1000 nM; in [4] it was 108 ± 16 nM; on human NPY Y5 receptor [5], 429 ± 133 nM; in [6], 587 nM.

As for (22-36)NPY [r/h(22-36)NPY], the Ki was above 1000 nM in [3]; above 1000 nM at human NPY Y5 receptor [2]; above 930 nM in assay [4]; above 900 nM at human NPY Y5 receptor [5]; above 1000 nM in assay [6]. Further, the IC50 on Rat Y2 (clone) stood at 0.89 nM.

Regarding (26-36)NPY [r/h(26-36)NPY], the Ki was above 1000 nM in assay [3]; above 1000 nM on human NPY Y5 receptor [2]; above 930 nM in assay [4]; above 900 nM at human NPY Y5 receptor [5]; above 1000 nM in assay [6]. The IC50 at Rat Y2 (clone) amounted to 84 nM.

For the substance (Leu^31Pro^34)(3-36)NPY [(LP)(3-36)NPY], the concentration for a half-maximal effect (EC50) at human Y5 receptor amounted to 23 ± 11 nM. For the same substance, the Ki on human NPY Y5 receptor [5] is 3.1 ± 0.6 nM.

Take (Leu^31Pro^34)PYY [h(LP)PYY]: the Ki on human NPY Y5 receptor [5] came to 1.3 ± 0.1 nM.

Regarding Neuropeptide Y [r/hNPY], at Rat Y4/PP1 (clone), the IC50 is above 1000 nM.

Broadly, the Ki is a dissociation constant, usually derived from enzyme kinetics or from competition with a known ligand. A word on the EC50: it is the concentration at which the effect is half-maximal.
